According to PubChem BioAssay AID2247 (Johns Hopkins Ion Channel Center, 2010):
This is a selection; strong and weak results do not stand in their true shares. Activity calls are given as the source filed them.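 The calls were made as follows: active = B-score over 3 SD under the library average, no early fluorescence shift, positive overall ratio signal; inactive = the rest.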

Amino acid sequences for entries named in this document (tags omitted).
UniProt Q9QUQ5, whole entry: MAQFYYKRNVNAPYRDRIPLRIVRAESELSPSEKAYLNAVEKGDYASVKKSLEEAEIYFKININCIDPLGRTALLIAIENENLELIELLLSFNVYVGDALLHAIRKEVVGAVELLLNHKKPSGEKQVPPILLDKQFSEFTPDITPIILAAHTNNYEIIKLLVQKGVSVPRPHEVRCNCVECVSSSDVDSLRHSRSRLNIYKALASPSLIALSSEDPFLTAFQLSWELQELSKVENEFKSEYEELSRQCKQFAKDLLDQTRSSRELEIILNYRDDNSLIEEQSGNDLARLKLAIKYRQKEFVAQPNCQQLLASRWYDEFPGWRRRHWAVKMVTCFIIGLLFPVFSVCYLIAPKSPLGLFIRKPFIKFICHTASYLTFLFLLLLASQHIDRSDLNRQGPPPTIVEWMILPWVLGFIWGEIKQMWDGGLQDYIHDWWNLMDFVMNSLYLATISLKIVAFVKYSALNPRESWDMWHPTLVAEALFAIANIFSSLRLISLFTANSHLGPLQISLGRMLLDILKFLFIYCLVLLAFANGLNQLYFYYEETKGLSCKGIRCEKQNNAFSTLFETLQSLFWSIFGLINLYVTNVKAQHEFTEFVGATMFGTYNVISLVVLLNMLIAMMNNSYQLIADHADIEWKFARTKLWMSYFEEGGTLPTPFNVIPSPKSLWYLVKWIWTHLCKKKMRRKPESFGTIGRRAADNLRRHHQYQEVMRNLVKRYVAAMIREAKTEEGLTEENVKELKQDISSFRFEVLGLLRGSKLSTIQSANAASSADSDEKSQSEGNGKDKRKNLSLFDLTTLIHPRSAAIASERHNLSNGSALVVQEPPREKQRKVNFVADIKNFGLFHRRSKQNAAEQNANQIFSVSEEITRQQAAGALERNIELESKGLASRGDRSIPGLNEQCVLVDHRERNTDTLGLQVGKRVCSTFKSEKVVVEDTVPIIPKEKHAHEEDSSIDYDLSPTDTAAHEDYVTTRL

target: Short transient receptor potential channel 4 (Mus musculus) (UniProt Q9QUQ5); experiment: blockers of DAMGO-evoked TRPC4 calcium flux – Fluo4 calcium, HEK293 TRPC4beta/mu-opioid cells, primary screen (AID 2247); conditions: at 10 µM; stronger effect = lower value

Row | Structure (SMILES) | outcome | B-score
1 | CCOC(=O)N1CCC(Nc2cccc(C)c2)CC1 | inactive | –
2 | COc1cc(C(=O)NCC2(N(C)C)CCCCC2)ccc1OC(F)F | – | active: -5
3 | Cc1ccc(OCC(C)C)c(CN(CCCl)CCCl)c1 | inactive | –
4 | O=C(NCC1(N2CCCCC2)CCCCC1)c1ccc(F)cc1 | inactive | –
5 | COc1ccc(NC2CCN(CCc3ccccc3)CC2)c(OC)c1 | inactive | –
6 | CCOC(=O)N1CCC(Nc2ccc(F)cc2)CC1 | inactive | –
7 | CCOc1ccc(C)cc1CN(CCCl)CCCl | inactive | –
8 | N#CC1(Nc2ccccc2)CCN(Cc2ccccc2)CC1 | inactive | –
9 | O=C(OC1CN2CCC1CC2)C1c2ccccc2Oc2ccccc21 (centres undefined) | inactive | –
10 | CCOC(=O)N1CCC(Nc2ccc(OC)cc2)CC1 | inactive | –
11 | O=C(NCC1(N2CCCCC2)CCCCC1)c1ccc(Cl)nc1 | inactive | –
12 | Cc1cc(C)cc(N(C(=O)c2ccccc2)C2CCN(C(=O)OC(C)(C)C)CC2)c1 | inactive | –
13 | O=C(NCC1(N2CCOCC2)CCCCC1)c1cc2ccccc2o1 | inactive | –
14 | CSc1ccccc1C(=O)NCC1(N2CCCCC2)CCCCC1 | inactive | –
15 | COc1ccc(C(=O)NCC2(N3CCCCC3)CCCCC2)cc1 | inactive | –
16 | CC(C)(C)OC(=O)N1CCC(N(C(=O)c2ccccc2)c2ccc(F)cc2)CC1 | inactive | –
17 | COc1ccc(C(=O)NCC2(N3CCCCC3)CCCCC2)c(OC)c1OC | inactive | –
18 | O=C(NCC1(N2CCCCC2)CCCCC1)c1ccc(=O)[nH]c1 | inactive | –
19 | O=C(NCC1(N2CCCCC2)CCCCC1)c1cccs1 | inactive | –
20 | CCCOc1ccc(C(=O)NCC2(N(C)C)CCCCC2)cc1OC | inactive | –

Row | Structure (SMILES) | outcome | B-score
21 | CN1CCC(Nc2cccc(F)c2)CC1 | inactive | –
22 | COc1cc(OC)c(C(=O)NCC2(N(C)C)CCCCC2)cc1OC | inactive | –
23 | CC(C)c1ccc(NC2CCN(C(=O)OC(C)(C)C)CC2)cc1 | inactive | –
24 | COc1ccc(CN(CCCl)CCCl)cc1Cl | inactive | –
25 | CN(C)c1cccc(C(=O)NCC2(N3CCCCC3)CCCCC2)c1 | inactive | –
26 | COc1cc(C(=O)NCC2(N3CCCCC3)CCCCC2)ccc1OC(F)F | inactive | –
27 | O=C(NCC1(N2CCOCC2)CCCCC1)c1cc(=O)[nH]c2ccccc12 | inactive | –
28 | CN1CCN(CCOC(=O)C(O)(c2ccccc2)c2ccccc2)CC1 | inactive | –
29 | COc1ccc(NC2CCN(C(=O)OC(C)(C)C)CC2)cc1 | inactive | –
30 | O=C(NCC1(N2CCCCC2)CCCCC1)c1cccc(C(F)(F)F)c1 | inactive | –
31 | CCN1CCC(Nc2ccc(Cl)cc2)CC1 | inactive | –
32 | N#CC1(Nc2ccccc2)CCN(CCc2ccccc2)CC1 | inactive | –
33 | O=C(NCC1(N2CCCCC2)CCCCC1)c1cccc([N+](=O)[O-])c1 | inactive | –
34 | O=C(NCC1(N2CCCCC2)CCCCC1)c1ccc(OC(F)F)cc1 | inactive | –
35 | CN(C)C1(CNC(=O)c2cccc(C#N)c2)CCCCC1 | inactive | –
36 | c1ccc(CN2CCC(Nc3ccccc3)CC2)cc1 | inactive | –
37 | CCCN1CCC(Nc2cc(OC)cc(OC)c2)CC1 | inactive | –
38 | N#Cc1ccc(C(=O)NCC2(N3CCCCC3)CCCCC2)cc1 | inactive | –
39 | CC(C)(C)OC(=O)N1CCC(N(C(=O)c2ccccc2)c2ccc(Cl)cc2)CC1 | inactive | –
40 | CCc1cc(C(=O)NCC2(N3CCCCC3)CCCCC2)sc1C | inactive | –

Row | Structure (SMILES) | outcome | B-score
41 | O=C(OC1CN2CCC1CC2)C1c2ccccc2C=Cc2ccccc21 (centres undefined) | inactive | –
42 | CCOC(=O)N1CCC(Nc2ccc(C)cc2)CC1 | inactive | –
43 | N/C(=N\O)c1c(N)no[n+]1[O-] | inactive | –
44 | COc1ccc(C(=O)NCC2(N3CCOCC3)CCCCC2)cc1OC | inactive | –
45 | CN1CCC(Nc2ccc(Cl)cc2)CC1 | inactive | –
46 | CCCOc1ccc(C)cc1CN(CCCl)CCCl | inactive | –
47 | COc1cc(OC)cc(C(=O)NCC2(N3CCOCC3)CCCCC2)c1 | inactive | –
48 | COc1cccc(C(=O)N(c2cc(C)cc(C)c2)C2CCN(C(=O)OC(C)(C)C)CC2)c1 | inactive | –
49 | CCC(CO)(C(=O)OC1CN2CCC1CC2)c1ccccc1 (centres undefined) | inactive | –
50 | CC(C)(C)OC(=O)N1CCC(Nc2ccccc2)CC1 | inactive | –
51 | O=C(O)C1(Nc2ccccc2)CCN(Cc2ccccc2)CC1 | inactive | –
52 | CCCOc1ccc(C(=O)NCC2(N(C)C)CCCCC2)cc1 | inactive | –
53 | CCOc1ncccc1C(=O)NCC1(N2CCOCC2)CCCCC1 | inactive | –
54 | CN1CCC(Nc2ccc(F)c(Cl)c2)CC1 | inactive | –
55 | CN(C)c1ccc(C(=O)NCC2(N3CCCCC3)CCCCC2)cc1 | inactive | –
56 | CCN1CCC(Nc2cccc(F)c2)CC1 | inactive | –
57 | Cc1ccc(C(=O)NCC2(N3CCCCC3)CCCCC2)o1 | inactive | –
58 | Fc1ccccc1NC1CCN(Cc2ccccc2)CC1 | inactive | –
59 | COc1cc(OC)cc(C(=O)NCC2(N3CCCCC3)CCCCC2)c1 | inactive | –
